Reference: patent publication US6417174B1, “Inhibitors of β-lactamases and uses therefor” (Northwestern University, priority 1997, dated 2002)

The chains behind the UniProt entries cited, without tags or fusion partners. Residues count along the entry.
UniProt P00811, 20-377 limits assumed: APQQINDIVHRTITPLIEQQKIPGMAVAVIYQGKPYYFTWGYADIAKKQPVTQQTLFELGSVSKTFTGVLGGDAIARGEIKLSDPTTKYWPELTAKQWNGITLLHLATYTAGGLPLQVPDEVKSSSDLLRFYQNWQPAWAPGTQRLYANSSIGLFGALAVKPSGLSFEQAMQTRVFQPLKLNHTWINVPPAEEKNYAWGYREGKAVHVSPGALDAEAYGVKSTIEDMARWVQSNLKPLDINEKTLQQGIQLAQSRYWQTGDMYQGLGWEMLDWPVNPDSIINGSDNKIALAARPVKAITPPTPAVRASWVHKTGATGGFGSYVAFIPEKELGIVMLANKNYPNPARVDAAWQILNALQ

Target: AmpC β-lactamase from E. coli (Escherichia coli, UniProt P00811)
Assay: Inhibition of AmpC β-lactamase, spectrophotometric assay (cephalothin substrate)
Type: biochemical
Details: read-out: Ki E. coli AmpC; pH 7

Structure (SMILES) | Ki [µM]
OB(O)c1ccc(F)cc1 | 6.1
COc1ccc(B(O)O)cc1 | 7.7
